# Values of other authors as cited in article PMC7674238 (Accounts of chemical research, 2020).
# System: VanA VRE
# Conditions: vancomycin-resistant strains
smiles,measurement,value
"CN[C@H](CC(C)C)C(=O)N[C@H]1C(=O)N[C@@H](CC(N)=O)C(=O)N[C@H]2C(=O)N[C@H]3C(=O)N[C@H](C(=O)N[C@H](C(=O)NCc4ccc(NC(=N)N)cc4)c4cc(O)cc(O)c4-c4cc3ccc4O)[C@H](O)c3ccc(c(Cl)c3)Oc3cc2cc(c3OC2OC(CO)C(O)[C@H](O)C2O[C@H]2CC(C)(NCc3ccc(-c4ccc(Cl)cc4)cc3)[C@H](O)[C@H](C)O2)Oc2ccc(cc2Cl)[C@H]1O (stereo partly shown) [compound 33, GBn-CBP-vancomycin]",further improvement in antimicrobial activity over CBP-vancomycin,≤ 8 fold
